# Antibody variant affinities, Ab-14 heavy chain, assay B

The target is the same throughout: PDVDLGDISGINAS, from the HR2 region of SARS-CoV-2 spike.

Parent: Ab-14, a human scFv built as VH, a (GGGGS)3 linker, VL. Only the CDRs of the heavy chain vary.
VH: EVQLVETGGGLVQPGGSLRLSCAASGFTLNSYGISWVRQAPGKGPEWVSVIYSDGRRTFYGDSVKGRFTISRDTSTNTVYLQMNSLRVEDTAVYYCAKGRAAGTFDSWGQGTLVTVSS
VL: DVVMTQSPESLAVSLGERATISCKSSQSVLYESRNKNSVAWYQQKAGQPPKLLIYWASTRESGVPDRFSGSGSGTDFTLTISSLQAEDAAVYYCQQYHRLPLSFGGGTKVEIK

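The parent was found by panning a naive human phage display library on the peptide. The variants were designed computationally from a first round of random CDR variants and then made and measured. Group labels follow the data file (Ctrl: baseline library sampled from a position-specific scoring matrix, with some repeated check sequences; Rand: our label for a block that the file lists under HC and that is probably the random mutants of the ten best first-round binders; En: ensemble of fine-tuned language models; GP: Gaussian process model; GPLM: also part of the Gaussian process libraries; HC: hill climbing; Gen: genetic algorithm; Gibbs: Gibbs sampling; a sequence that several methods proposed may carry one label only). AlphaSeq pools MATa yeast showing the antibodies with MATalpha yeast showing the peptide. The frequency of each diploid, read from paired DNA barcodes, reflects how well the two displayed proteins bind. The ratio of observed to expected reads was calibrated, replicate by replicate, on BCL2-family standards whose Kd was known from biolayer interferometry. Each pool was mated in six replicate cultures.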

Each variant is given by its three heavy chain CDRs, as the data file delimits them; those of the parent are GFTLNSYGIS, VIYSDGRRTFYGDSVK, GRAAGTFDS. Kd is apparent (estimated from mating counts) and averaged on the log scale over replicates with a signal. Smaller is tighter. A pair that was not seen in any replicate is written "nd"; this usually means weak binding, but a binder can also be missed. Background: pairings of all heavy chain designs with three empty control strains gave a value in 1% of cases (median 120 nM, 5th percentile 7.0 nM). Values in that range, when seen in few replicates, are hard to tell from nonspecific mating. For each scFv, signals with the empty controls are counted beside the result. In the paper, a design with two or fewer of six values counts as a poor binder. Where one sequence has several entries in the source, the replicates are pooled. The range of this assay differs from that of the first round, and the authors advise against merging the two. Of ten entries with the parent sequence, four were seen in most replicates (averages 2.2 nM to 240 nM), three in one and three in none, so single entries are noisy.

| CDR-H1 | CDR-H2 | CDR-H3 | group | Kd (apparent) | detected | empty controls |
|---|---|---|---|---|---|---|
| GNDIQEYGIS | VIYADGQRVNAASQVK | GKQAGTFNL | En_Gibbs | 91 nM | 1 of 6 | 0 of 18 |
| GFDLDEYGIS | VIYADGRRTSYADSVK | GENAGTFDV | En_Gen | 240 nM | 1 of 6 | 1 of 18 |
| GFDLNEYGIS | VIYADGMRTAYTDNVK | GENAGTFDV | En_Gen | 890 pM | 6 of 6 | 1 of 18 |
| GFTLNDYGIS | VIYSDGRRTQYIDSVK | GRAAGTFWS | GPLM_HC | nd | 0 of 6 | 0 of 18 |
| GFNLNEYGIS | VIYADGRRTFYADSVK | GETAGTFDF | En_HC | 440 pM | 6 of 6 | 1 of 18 |
| GFDLNEYGIS | VIYADGQRTAYADSVK | GKMAGTFDS | En_HC | 240 pM | 6 of 6 | 2 of 18 |
| LFTLNEYGIS | VIYSDGRRTFYTDSVK | GRTAGTFDS | GPLM_HC | 13 nM | 6 of 6 | 0 of 18 |
| GFELNEYGIS | VIYSDGRRTFYGDSVK | GHAAGTFDF | GP_Gibbs | 10 nM | 4 of 6 | 0 of 18 |
| GKDIEEYGIS | VIYADGMRQAYKESVK | GQVAGIGKF | En_Gibbs | nd | 0 of 6 | 0 of 18 |
| GKDLDEYGIS | VIYADGARKAYQNYFK | GGQAGTFVN | En_Gibbs | nd | 0 of 6 | 0 of 18 |
| GFTLNEYGIS | VIYSDGRRTFYTDSVK | GRSAGTFSS | GPLM_HC | 94 nM | 6 of 6 | 0 of 18 |
| GFDLNEYGIS | VIYADGQRKFYADKVK | GENAGTFNV | En_HC | 350 pM | 6 of 6 | 0 of 18 |
| GFDLNEYGIS | VIYADGRRTFYADSVK | GNAAGTFIL | En_HC | 3.1 nM | 6 of 6 | 0 of 18 |
| GFTPNEYGIS | VIYSDGRRTFYTDSVK | GRFAGTFDS | Rand | 130 nM | 4 of 6 | 1 of 18 |
| GFDLNEYGIS | VIYADGMRTYYADSVK | GTNAGTFDL | En_Gen | 300 pM | 6 of 6 | 0 of 18 |
| GFTLNSYGIS | VIYSDGRRTFYSDSVK | GVEAGTFFS | GP_HC | nd | 0 of 6 | 0 of 18 |
| GFNLNSYGIS | VIYSDGRRTFYGDSVK | VREMGTFDS | Ctrl | 340 nM | 1 of 6 | 1 of 18 |
| GFTLNDYGIS | VIYSDGRRTFYKDSVK | GRAAGTFDT | GP_HC | 2.7 nM | 6 of 6 | 0 of 18 |
| GFTLNSYGIS | VIYSDGRRTFYGDSVK | GYGSGTFDS | Ctrl | 3.5 µM | 1 of 30 | 5 of 90 |
| GETLNSYGIS | VIRSDGRRTFYGDSVK | GRWAGTFDS | Ctrl | nd | 0 of 6 | 0 of 18 |
| GMSLDEYGIS | VIYADGMRTFYANTVK | GEDGVFYDQ | En_Gibbs | nd | 0 of 6 | 0 of 18 |
| GFTLNSYGIS | VIYSDGMRTFYSDSVK | GEAAGTFDS | GPLM_Gen | 17 nM | 6 of 6 | 0 of 18 |
| GFDLNEYGIS | VIYADGMRTAYIDSVK | GEQAGTFDL | En_HC | 500 pM | 6 of 6 | 1 of 18 |
| GFWLNEYGIS | VIYSDGRRTFYTDSVK | GRTAGTFDS | GP_Gibbs | 2.2 nM | 6 of 6 | 0 of 18 |
| GFDLNEYGIS | VIYADGRRTFYADSVK | GEVAGTFVM | En_HC | 520 pM | 6 of 6 | 0 of 18 |
| GFDLNEYGIS | VIYADGRRTAYSDSVK | GETAGTFDF | En_HC | 330 pM | 6 of 6 | 0 of 18 |
| GFNLNSYGIS | VIYSDGRRTFYVDDVK | GRLAGTFDS | GP_Gibbs | 27 nM | 6 of 6 | 0 of 18 |
| GFTLNSYGIS | VIYSDGRRTMYGDSVK | GRAAATFDS | Ctrl | nd | 0 of 6 | 0 of 18 |
| GFTLKSYGIS | VIYSDGRRTFYGDSVK | GRAAGTFHM | Ctrl | nd | 0 of 6 | 0 of 18 |
| GFDLNEYGIS | VIYSDGRRTFYGDSVK | GRFAGTFDS | GP_HC | 6.2 nM | 6 of 6 | 1 of 18 |
| GFKLNSYGIS | VIYSDGRRTFYTDSVK | GQLAGTFDS | GP_HC | 1.3 nM | 6 of 6 | 1 of 18 |
| GFSLNSYGIS | VIYSDGKRTFYGDNVK | GQAAGTFDS | GP_Gibbs | 2.5 nM | 6 of 6 | 1 of 18 |
| GFSLNSYGIS | VIYSDGRRTFYGDDVK | GQTAGTFDS | GPLM_Gen | 1.3 nM | 2 of 6 | 0 of 18 |
| GFDLEEYGIS | VIYADGMRVSYTNTVK | GQNSMISTT | En_Gibbs | nd | 0 of 6 | 0 of 18 |
| GFTLNSYGIS | VIYSDGRRTFYGDSVK | GRAYGYFDS | Ctrl | nd | 0 of 6 | 0 of 18 |
| WFSLNDYGIS | VIYSDGRRTFYGDSVK | GRTAGTFDS | GPLM_Gen | 1.5 nM | 6 of 6 | 3 of 18 |
| GFNLNEYGIS | VIYSDGRRTFYGDSVK | GKAAGTFDS | GPLM_Gen | 1.1 nM | 6 of 6 | 0 of 18 |
| GFDLEEYGIS | VIYADGRRTFYADSVK | GNVAGTFDS | En_HC | 510 pM | 6 of 6 | 0 of 18 |
| GFDLNEYGIS | VIYADGVRTAYIDSVK | GEVAGTFDL | En_Gen | 980 pM | 6 of 6 | 1 of 18 |
| GFTLESYGIS | VIYSDGRRTFYHDSVK | GREAGTFDT | GP_Gibbs | 1.1 nM | 6 of 6 | 0 of 18 |
| GFDLNSYGIS | VIYSDGRRTFYGDSVK | GRTAGSFWS | GPLM_HC | nd | 0 of 6 | 0 of 18 |
| GFDLNEYGIS | VIYADGRRTYYDDSVK | GQLAGTFDL | En_HC | 570 pM | 6 of 6 | 2 of 18 |
| GFTLNMYGIS | VIYSDGRRTFYSDSVK | GRAAGFFDL | Rand | nd | 0 of 6 | 0 of 18 |
| GFTLNSYGIS | VIYSDGRRTFYIDSVK | GKVAGTFDS | GPLM_Gen | 28 nM | 4 of 6 | 0 of 18 |
| GFDLNSYGIS | VIYSDGRRTFYKDSVK | GKEAGTFDT | GP_Gibbs | 410 pM | 6 of 6 | 0 of 18 |
| GFDLNEYGIS | VIYADGRRTFYSDSVK | GENGGTFDV | En_HC | 1.8 nM | 6 of 6 | 1 of 18 |
| GFNLDEYGIS | VIYADGARTAYANKVK | GGNWWISVN | En_Gibbs | nd | 0 of 6 | 0 of 18 |
| GFDLDEYGIS | VIYADGMRTVYTDSVK | GENAGTFDV | En_Gen | 400 pM | 6 of 6 | 0 of 18 |
| GFTLNEYGIS | VIYSDGRRTMYMDSVK | GRCAGTFDS | GP_HC | nd | 0 of 6 | 0 of 18 |
| GFTLNNYGIS | VIYAYGRRTFYGDSVK | GRAAGTNNS | Rand | nd | 0 of 6 | 0 of 18 |

7 of these entries, quoted again:

| CDR-H1 | CDR-H2 | CDR-H3 | group | Kd (apparent) | detected | empty controls |
|---|---|---|---|---|---|---|
| GFTLNEYGIS | VIYSDGRRTMYMDSVK | GRCAGTFDS | GP_HC | nd | 0 of 6 | 0 of 18 |
| GFTLESYGIS | VIYSDGRRTFYHDSVK | GREAGTFDT | GP_Gibbs | 1.1 nM | 6 of 6 | 0 of 18 |
| GNDIQEYGIS | VIYADGQRVNAASQVK | GKQAGTFNL | En_Gibbs | 91 nM | 1 of 6 | 0 of 18 |
| GFDLNEYGIS | VIYADGVRTAYIDSVK | GEVAGTFDL | En_Gen | 980 pM | 6 of 6 | 1 of 18 |
| GFSLNSYGIS | VIYSDGRRTFYGDDVK | GQTAGTFDS | GPLM_Gen | 1.3 nM | 2 of 6 | 0 of 18 |
| GFTLNSYGIS | VIYSDGRRTFYGDSVK | GYGSGTFDS | Ctrl | 3.5 µM | 1 of 30 | 5 of 90 |
| GFDLNEYGIS | VIYADGQRKFYADKVK | GENAGTFNV | En_HC | 350 pM | 6 of 6 | 0 of 18 |

Data: MIT Lincoln Laboratory AlphaSeq set, Li et al. 2023, doi:10.1038/s41467-023-39022-2, as distributed in FLAb.